Ki data for 51 molecules are collected here from patent US20230106511A1, “PBP3 BINDING BICYCLIC PEPTIDE LIGANDS” (priority 2020, published 2023).

Experiment [1] has as its target PBP3 (E. coli) (Escherichia coli, UniProt P0AD68). The experiment in a line: Fluorescence polarisation competition study using BCY12820 as tracer. The format is binding. The note with it: competition with BCY12820 as tracer. As to the method:
Fluorescence polarisation competition was carried out using a BODIPY labelled Penicillin tracer and unlabelled peptides, for competition to an unmodified PBP protein. Polarisation was measured using a PHERAstar FS by BMG Labtech fitted with a FP 485 520 520 optic module.
Fluorescent BODIPY labelled penicillin at 5 mM in DMSO were diluted to 6.25 nM in binding buffer (10 mM HEPES, pH8, 300 mM NaCl, 2% glycerol). Unmodified PBP were diluted to 2 μM in binding buffer. A two-fold dilution series of unmodified peptide was prepared across 12 wells in binding buffer, with the highest final well concentration being 60 μM, and the lowest concentration being […]. 5 μl of the unmodified peptide dilution series or Carbenicillin were added to 12 wells of a 384-Well NBS™ Low Volume Microplate (Fisher Scientific). 10 μl diluted fluorescent BODIPY labelled penicillin (6.25 nM) were then added to the 12 wells containing the unmodified peptide dilutions. 10 μl of unmodified PBP (2 μM) were then added to the 12 wells containing unmodified peptide and fluorescent BODIPY labelled penicillin to bring the total volume to 25 μl, and the final concentration of Fluorescent BODIPY labelled penicillin to 2.5 nM and unmodified PBP to 800 nM.
A control well lacking unmodified peptide was prepared with a final fluorescent BODIPY labelled penicillin concentration of 2.5 nM and a final concentration of unmodified PBP of 800 nM to a final volume of 25 μl in binding buffer. A second control well lacking unmodified peptide and unmodified PBP was prepared with a final fluorescent BODIPY labelled penicillin concentration of 2.5 nM to a final volume of 25 μl in binding buffer.
Fluorescence polarisation was measured every 5 minutes for a period of one hour at room temperature. The gain and focal height were optimised using the control well lacking unmodified peptide and unmodified PBP. Wells were excited at 485 nm, and emission detection was set at 520 nm.
Data were analysed in GraphPad software to derive values for the inhibition constant. Experiments were repeated at least three times.
A further fluorescence polarisation competition study was carried out using BCY12820 as a tracer and the results are shown in Table 3: […]

The target in experiment [2] is T1, PBP3 of E. coli (E. coli), P0AD68.
T1 chain: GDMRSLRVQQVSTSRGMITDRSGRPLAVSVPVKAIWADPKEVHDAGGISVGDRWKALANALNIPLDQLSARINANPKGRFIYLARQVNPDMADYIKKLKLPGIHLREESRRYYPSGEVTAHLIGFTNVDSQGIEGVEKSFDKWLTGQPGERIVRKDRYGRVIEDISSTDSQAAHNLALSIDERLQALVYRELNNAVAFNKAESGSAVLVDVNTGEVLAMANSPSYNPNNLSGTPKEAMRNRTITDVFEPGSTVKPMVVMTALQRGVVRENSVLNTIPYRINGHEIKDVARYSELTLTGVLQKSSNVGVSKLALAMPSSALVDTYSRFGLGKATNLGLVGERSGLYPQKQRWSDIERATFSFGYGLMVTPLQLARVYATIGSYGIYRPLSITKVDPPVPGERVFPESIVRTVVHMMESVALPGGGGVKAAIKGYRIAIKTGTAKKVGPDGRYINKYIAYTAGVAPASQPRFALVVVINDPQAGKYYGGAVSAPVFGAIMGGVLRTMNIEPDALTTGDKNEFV
Nature of the experiment: FP competition, tracer BCY12820.

A-(SEQ ID NO: 8)-A [BCY13419]: in experiment [1], the Ki was 0.04 µM. In other words, the double-digit nanomolar range.
Still for that read-out and setting: next, A-(SEQ ID NO: 12)-A [BCY13424]: 0.025 µM.
A-(SEQ ID NO: 40)-A [BCY13953]: in experiment [1], the Ki is 38.4 µM.
Consider A-(SEQ ID NO: 39)-A [BCY13952], for which the affinity in experiment [1] corresponds to a Ki of 118 µM.
ACHFPVCPWVENCA (modifications not checked) [BCY13753] displayed a Ki in experiment [2] of 21.7 µM.
In turn, ACSYPKCPWVEGCA (modifications not checked) [BCY13757] had a Ki in experiment [2] of 14.8 µM.
Same read-out and setting: next, ACYYPKCPWVEGCA (modifications not checked) [BCY13765]: 1.47 µM; ACSFPKCPWVAGCA (modifications not checked) [BCY13663]: 0.012 µM; ACLFPGCPWVEHCA (modifications not checked) [BCY13750]: 10.9 µM.
On the same count and under the same terms, for ACSFPMCPWVENCA (modifications not checked) [BCY13227] the value was 0.027 µM; for ACSAPKCPWVEGCA (modifications not checked) [BCY13657], 0.331 µM; for ACVFPTCPWVEHCA (modifications not checked) [BCY13980], 7.99 µM.
Same read-out and setting: for EDRCHFPKCPWVEGCA (modifications not checked) [BCY13760] the value was 8.95 µM.
As for ACKFPVCPWVEYCA (modifications not checked) [BCY13747], the Ki in experiment [2] worked out at 11.3 µM.
Turning to ACSFPKCPWVEHCA (modifications not checked) [BCY13758], the Ki in experiment [2] was found to be 15.2 µM. This Ki and that of the molecule before are within 1.5-fold of each other.
Take ACEYPKCPWVEGCA (modifications not checked) [BCY13967]: the Ki in experiment [2] was found to be 14 µM. This Ki and that of the molecule before are within 1.5-fold of each other.
Still for that read-out and setting: next, ACSFPHCPWVEGCA (modifications not checked) [BCY13965]: 11.2 µM.
For SGHCSFPKCPWVEGCA (modifications not checked) [BCY13761], in experiment [2], the Ki is 12.6 µM. The Ki values of the last two molecules are within 1.5-fold of each other.
Same read-out and setting: next, ACRFPKCPWVEGCA (modifications not checked) [BCY13766]: 4.68 µM; ACSFPKCAWVEGCA (modifications not checked) [BCY13660]: 0.294 µM.
ACIYPKCPWVEGCA (modifications not checked) [BCY13769] returned a Ki in experiment [2] of 4.18 µM.
Still for that read-out and setting: for ACSFPKCPWVEHCSSI (modifications not checked) [BCY13762] the value was 13 µM; for ESWCTFPKCPWVEGCA (modifications not checked) [BCY13759], 11.4 µM.
Molecule ACSFPICPWVEGCA (modifications not checked) [BCY13767] had a Ki in experiment [2] of 5.39 µM.
The same measure, in the same setting: for ACHFPKCPWVEGCA (modifications not checked) [BCY13754] the value was 12.6 µM.
For the molecule ACSFAKCPWVEGCA (modifications not checked) [BCY13658], the Ki in experiment [2] worked out at 0.072 µM.
The same measure, in the same setting: for ACSFPKCPWVEACA (modifications not checked) [BCY13420] the value was 0.029 µM.
The same measure, in the same setting: next, ACAFPHCPWVEFCA (modifications not checked) [BCY13969]: 7.32 µM; ACRFPDCPWVEHCA (modifications not checked) [BCY13975]: 7.9 µM; ACSFPTCPWVEGCA (modifications not checked) [BCY13961]: 13.2 µM.
The same measure, in the same setting: next, ACSFAKCPWVEGCA (modifications not checked) [BCY13952]: 118 µM; ACEFPKCPWVEGCA (modifications not checked) [BCY13755]: 14.5 µM; ACIFPKCPWVEGCA (modifications not checked) [BCY13971]: 12.1 µM.
As to ACHYPKCPWVEGCA (modifications not checked) [BCY13966], the Ki in experiment [2] is 10.5 µM.
Same read-out and setting: for ACSFPKCPWVENCKVD (modifications not checked) [BCY13763] the value was 9.82 µM; for ACQFPGCPWVEFCA (modifications not checked) [BCY13970], 7.87 µM; for ACVFPKCPWVEGCA (modifications not checked) [BCY13962], 12.1 µM.
In turn, ACFFPQCPWVEGCA (modifications not checked) [BCY13751] had a Ki in experiment [2] of 9.64 µM.
The same measure, in the same setting: next, ACHFPTCPWVEYCA (modifications not checked) [BCY13976]: 7.35 µM; ACHFPTCPWVEWCA (modifications not checked) [BCY13748]: 10.5 µM.
On the same count and under the same terms, next, ACSFPACPWVEGCA (modifications not checked) [BCY13953]: 38.4 µM; ACTFPKCPWVEGCA (modifications not checked) [BCY13963]: 12.1 µM.
On the same count and under the same terms, next, ACRFPNCPWVEHCA (modifications not checked) [BCY13979]: 8.46 µM.
ACVFPACPWVEYCA (modifications not checked) [BCY13977] displayed a Ki in experiment [2] of 5.02 µM. Compared with the last molecule, the Ki is about 1.7-fold lower.
The same measure, in the same setting: next, ACWFPGCPWVEHCA (modifications not checked) [BCY13973]: 10.9 µM.
With ACNFPECPWVEHCA (modifications not checked) [BCY13978], in experiment [2], the Ki amounted to 14.8 µM. The Ki values of the last two molecules are within 1.5-fold of each other.
Regarding ACYFPGCPWVENCA (modifications not checked) [BCY13981], in experiment [2], the Ki came to 2.13 µM. Compared with the last molecule, the Ki is about 6.9-fold lower.
On to ACSFPSCPWVEHCA (modifications not checked) [BCY13972], for which the Ki in experiment [2] turned out to be 10.6 µM.
Still for that read-out and setting: next, ACTFPACPWVEYCA (modifications not checked) [BCY13749]: 5.56 µM; ACYFPKCPWVEGCA (modifications not checked) [BCY13756]: 14 µM.
ACSFPLCPWVEGCA (modifications not checked) [BCY13968]: the Ki in experiment [2] came to 9.47 µM.
